Reference: article PMC11944621, “Synthesis, Molecular Simulation, DFT, and Kinetic Study of Imidazotriazole-Based Thiazolidinone as Dual Inhibitor of Acetylcholinesterase and Butyrylcholinesterase Enzymes” (Pharmaceuticals, 2025)

Chains of the proteins cited; added tags and fusions are not shown. Residues count along the entry.
UniProt P06276, 29-602 limits assumed: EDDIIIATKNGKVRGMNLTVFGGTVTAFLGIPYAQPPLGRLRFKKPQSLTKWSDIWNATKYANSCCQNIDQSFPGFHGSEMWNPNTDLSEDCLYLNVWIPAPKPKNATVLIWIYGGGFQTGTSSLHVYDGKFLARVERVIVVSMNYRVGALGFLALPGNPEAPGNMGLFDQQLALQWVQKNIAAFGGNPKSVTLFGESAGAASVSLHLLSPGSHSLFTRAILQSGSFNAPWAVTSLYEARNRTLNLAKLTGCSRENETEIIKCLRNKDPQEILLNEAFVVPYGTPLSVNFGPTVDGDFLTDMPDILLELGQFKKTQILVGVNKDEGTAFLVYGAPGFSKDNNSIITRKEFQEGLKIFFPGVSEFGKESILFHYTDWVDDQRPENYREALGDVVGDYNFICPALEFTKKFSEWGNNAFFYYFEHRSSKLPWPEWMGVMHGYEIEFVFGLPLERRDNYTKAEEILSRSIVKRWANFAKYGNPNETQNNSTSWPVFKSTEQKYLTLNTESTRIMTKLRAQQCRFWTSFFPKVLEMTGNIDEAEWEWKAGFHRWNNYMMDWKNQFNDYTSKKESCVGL
UniProt P22303, 32-614 limits assumed: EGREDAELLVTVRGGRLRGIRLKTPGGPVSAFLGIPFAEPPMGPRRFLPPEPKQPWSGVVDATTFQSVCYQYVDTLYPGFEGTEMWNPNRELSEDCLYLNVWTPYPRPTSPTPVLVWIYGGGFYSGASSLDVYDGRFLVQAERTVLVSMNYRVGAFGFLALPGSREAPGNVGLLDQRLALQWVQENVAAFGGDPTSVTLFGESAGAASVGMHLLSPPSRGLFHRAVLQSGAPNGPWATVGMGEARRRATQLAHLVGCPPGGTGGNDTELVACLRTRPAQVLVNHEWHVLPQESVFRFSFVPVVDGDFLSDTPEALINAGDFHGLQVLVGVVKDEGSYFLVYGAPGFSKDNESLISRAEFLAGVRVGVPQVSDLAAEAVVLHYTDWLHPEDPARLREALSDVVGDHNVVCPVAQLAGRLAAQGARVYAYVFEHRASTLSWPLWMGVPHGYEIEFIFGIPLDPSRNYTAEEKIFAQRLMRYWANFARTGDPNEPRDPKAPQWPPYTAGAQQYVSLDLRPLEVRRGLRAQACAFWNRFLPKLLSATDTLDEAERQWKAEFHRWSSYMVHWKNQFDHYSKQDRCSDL

Experiments:
BChE = BChE (Homo sapiens, UniProt P06276); conditions: read-out: BChE IC50 ± SEM
AChE = AChE (Homo sapiens, UniProt P22303); conditions: read-out: AchE IC50 ± SEM

SMILES | IC50 (BChE) [µM] | IC50 (AChE) [µM]
COc1cc(-c2nnc3[nH]ccn23)ccc1N1C(=O)CSC1c1ccc(Cl)cc1 (stereo not shown) | 18.1 | 17.4
COc1cc(-c2nnc3[nH]ccn23)ccc1N1C(=O)CSC1c1ccc(F)c(O)c1 (stereo not shown) | 10.9 | 10.4
COc1ccc(C2SCC(=O)N2c2ccc(-c3nnc4[nH]ccn34)cc2OC)cc1 (stereo not shown) | 19.9 | 19.2
COc1cc(-c2nnc3[nH]ccn23)ccc1N1C(=O)CSC1c1ccc(Cl)c(Cl)c1 (stereo not shown) | 18.7 | 18.1
COc1cc(-c2nnc3[nH]ccn23)ccc1N1C(=O)CSC1c1ccc(F)c([N+](=O)[O-])c1 (stereo not shown) | 16.7 | 16.2
COc1cc(-c2nnc3[nH]ccn23)ccc1N1C(=O)CSC1c1ccc(Cl)cc1[N+](=O)[O-] (stereo not shown) | 21.3 | 20.2
COc1cc(-c2nnc3[nH]ccn23)ccc1N1C(=O)CSC1c1cc(O)cc(F)c1 (stereo not shown) | 10.1 | 9.7
COc1cc(-c2nnc3[nH]ccn23)ccc1N1C(=O)CSC1c1cc(F)cc(F)c1 (stereo not shown) | 11.6 | 10.3
COc1cc(-c2nnc3[nH]ccn23)ccc1N1C(=O)CSC1c1ccc(F)cc1 (stereo not shown) | 13.1 | 12.5
COc1cc(-c2nnc3[nH]ccn23)ccc1N1C(=O)CSC1c1ccc(O)cc1 (stereo not shown) | 12.1 | 11.5
COc1cc(-c2nnc3[nH]ccn23)ccc1N1C(=O)CSC1c1ccc([N+](=O)[O-])cc1 (stereo not shown) | 22.1 | 21.4
